Patent US20220107328A1, “METHODS OF TREATING LIVER DISEASES” (Camp4 Therapeutics Corporation, priority 2018, published 2022)

Tests used:
PNPLA3 mRNA = assay: qRT-PCR of PNPLA3 mRNA in compound-treated primary human hepatocytes; conditions: validation in human hepatocytes from a second donor
PNPLA3 expression = assay: RNA-seq of compound-treated primary human hepatocytes; type: cell-based
PNPLA5 expression = assay: RNA-seq of compound-treated primary human hepatocytes, PNPLA5; type: cell-based
Procedure: To identify small molecules that modulate PNPLA3, primary human hepatocytes were prepared as a monoculture, and at least one small molecule compound was applied to the cells.
RNA-seq was performed to determine the effects of the compounds on PNPLA3 expression in hepatocytes. Fold change was calculated by dividing the level of expression in the cell system that had been perturbed by the level of expression in an unperturbed system. Changes in expression having a p-value≤0.05 were considered significant.
TBK1, also known as the NF-κB-activating kinase, can mediate NF-κB activation in response to certain growth factors. ACVR1 is a member of the TGF-beta family subgroup of receptors and can activate SMAD transcriptional regulators upon ligand binding. […] Therefore, signaling proteins in the NF-κB pathway and ACVR1/SMAD pathway were targeted via siRNA to test their effect on PNPLA3.

## C1=C/COCc2cc(ccc2OCCN2CCCC2)Nc2nccc(n2)-c2cccc(c2)COC/1 [Pacritinib]
PNPLA3 mRNA
  PNPLA3 expression (in words): substantial decrease in PNPLA3 expression

B1: BMP2 (protein, UniProt P12643 283-396, looked up)
Bone morphogenetic protein 2: QAKHKQRKRLKSSCKRHPLYVDFSDVGWNDWIVAPPGYHAFYCHGECPFPLADHLNSTNHAIVQTLVNSVNSKIPKACCVPTELSAISMLYLDENEKVVLKNYQDMVVEGCGCR
PNPLA3 expression
  PNPLA3 expression in the RNA-seq study (in words): best upregulators of PNPLA3 and PNPLA5
PNPLA5 expression
  PNPLA5 expression in the RNA-seq study (in words): best upregulators of PNPLA3 and PNPLA5
